Data on one substance can be found in patent US20170258781A1, “ATRIAL SPECIFIC ANTIARRHYTHMICS FOR USE IN TREATING OR PREVENTING ATRIAL FIBRILLATION” (Tufts Medical Center, Inc., priority 2014, published 2017).

The chains behind the UniProt entries cited, without tags or fusion partners. Where a name states a change or a piece, a line headed by the entry shows the natural chain unless it says otherwise.
UniProt Q12809: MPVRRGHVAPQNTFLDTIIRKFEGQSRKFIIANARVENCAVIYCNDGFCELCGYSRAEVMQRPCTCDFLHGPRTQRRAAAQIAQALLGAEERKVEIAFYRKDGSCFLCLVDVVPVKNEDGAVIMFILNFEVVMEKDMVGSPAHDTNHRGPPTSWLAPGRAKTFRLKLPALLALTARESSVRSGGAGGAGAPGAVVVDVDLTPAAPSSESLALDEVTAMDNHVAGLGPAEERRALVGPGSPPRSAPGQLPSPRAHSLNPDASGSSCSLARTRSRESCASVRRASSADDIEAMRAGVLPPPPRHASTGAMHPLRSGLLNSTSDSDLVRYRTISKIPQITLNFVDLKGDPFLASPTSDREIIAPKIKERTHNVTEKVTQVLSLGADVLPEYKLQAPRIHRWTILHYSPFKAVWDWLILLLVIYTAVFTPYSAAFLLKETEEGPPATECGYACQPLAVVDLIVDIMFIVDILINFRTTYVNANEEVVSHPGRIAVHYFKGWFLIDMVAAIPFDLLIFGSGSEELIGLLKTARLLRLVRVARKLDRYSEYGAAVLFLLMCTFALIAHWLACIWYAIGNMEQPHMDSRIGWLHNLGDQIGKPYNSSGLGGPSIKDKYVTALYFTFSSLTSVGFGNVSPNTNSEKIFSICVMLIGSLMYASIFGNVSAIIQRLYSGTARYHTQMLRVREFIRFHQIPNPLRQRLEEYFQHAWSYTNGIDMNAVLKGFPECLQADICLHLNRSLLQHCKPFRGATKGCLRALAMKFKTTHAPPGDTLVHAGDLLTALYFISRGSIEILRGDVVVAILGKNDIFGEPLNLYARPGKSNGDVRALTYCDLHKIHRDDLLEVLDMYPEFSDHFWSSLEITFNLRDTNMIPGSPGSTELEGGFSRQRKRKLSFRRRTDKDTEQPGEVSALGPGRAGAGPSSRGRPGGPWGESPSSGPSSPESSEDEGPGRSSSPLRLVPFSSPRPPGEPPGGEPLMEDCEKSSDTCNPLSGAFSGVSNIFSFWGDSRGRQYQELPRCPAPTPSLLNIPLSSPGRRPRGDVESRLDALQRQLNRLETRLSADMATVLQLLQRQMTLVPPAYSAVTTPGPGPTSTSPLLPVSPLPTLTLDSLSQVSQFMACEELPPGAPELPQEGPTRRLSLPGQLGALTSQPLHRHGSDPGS

The data set deals with IKr (hERG protein channel) (Homo sapiens, UniProt Q12809). Briefly: Patch clamp block of IKr tail current in transfected CHO cells. To be noted: for percentage block of IKr tail current: 1 μM drug, CHO cells transfected with hERG, full block with 10 μM E4031, 5 minute superfusion. As for the experimental part: FIG. 2: IKr current was measured in Chinese hamster ovary cells (CHO) expressing the current.
The arrow denotes the tail current. Tail current is elicited by 3 second step voltage drop from +20 mV to −40 mV. The gray trace is the remaining current after total current block with E4031.
We used the conventional patch clamp method and human embryonic kidney cells transfected with Kir3.1 and Kir3.4 protein channels responsible for IKACh, or Chinese hamster ovary cells transfected with the hERG protein channel responsible for IKr. […] In order to elicit IKACh, the cells were subjected to a voltage protocol consisting of a 2 second ramp from −130 mV to 50 mV, from a holding potential of −40 mV. IKr tail current was elicited by a 3 second voltage drop step from 20 mV to −40 mV. The drugs were superfused over a 5 minute period into the chambers that hold the cells.
(Patch clamp records ionic current or voltage across a cell membrane.)

Regarding chloroquine [racemic chloroquine], the “percentage block of IKr tail current” value turned out to be 33%. For the same substance, the “percentage block of IKr tail current” value (listed as Racemic chloroquine) is 32.9%±1.2. The “percentage block of IKr current (FIG. 5, Compound A experiments)” value (Compound A vs racemic chloroquine, same manner and cell lines, concentration not given) is given as 68%±2.8.
